From patent publication US20250361273A1, “METHODS AND COMPOSITIONS” (priority 2024, published 2025)

System: MC4R vs MC1R
Test: Selectivity calculation MC4R vs MC1R (division of cAMP EC50 values)
Assay type: cell-based, human
Settings: Table 5
Procedure: Peptides, including comparator molecules were tested by assays listed below. Selectivity between receptors was assessed in part using cAMP assays, which test the activity of peptides through the Gs pathway.
Selectivity between any two receptors was calculated by a division of the EC50 values between the two receptors, for each individual peptide.

a-MSH was tested, and the “Selectivity: MC4R v MC1R (Larger numbers indicate selectivity towards MC4R)” value was 0.07.
